Measurements as given in patent US9675065B2 (priority 2011, dated 2017).

Experiments:
[1] = Storage stability of alkaline pH acetyl chlorate, gas release on ceramic cylinder after activation; settings: NaHCO3 added
[2] = Stability with acidified silver chloride catalyst, gas formation on ceramic cylinder; settings: 10 ml of 5 wt % stock solution + 100 microliters acidified silver chloride
[3] = octanol/water, parent acid; cited from earlier work

Compound | gas release from ceramic cylinder sustained for ([1]; after 72 hours storage at pH 9.61, HCl to pH 6.0) | gas release from ceramic cylinder sustained for ([1]; after 14 days storage at pH 9.61, HCl to approximately pH 6.0) | gas release from ceramic cylinder sustained for ([1]; after 21 days storage at pH 9.61, HCl to approximately pH 6.0) | gas release from ceramic cylinder sustained for ([1]; freshly made solution, final pH 9.61, HCl to pH 5.5) | gas formation on the test cylinder [2] | reported Log P [3]
CC(=O)O[Cl+2]([O-])[O-] | greater than 10 minutes | greater than 10 minutes | greater than 10 minutes | greater than 10 minutes | no gas formation | 
furoic acid |  |  |  |  |  | about 0.6
